# From patent publication US20040121947A1, “Compounds which inhibit beta-secretase activity and methods of use thereof” (Oklahoma Medical Research Foundation, priority 2000, published 2004)
# Sequences of proteins named here, by UniProt entry; tags and fusion partners are left off. Residues count along the entry.
# UniProt P56817, 41-454 limits assumed: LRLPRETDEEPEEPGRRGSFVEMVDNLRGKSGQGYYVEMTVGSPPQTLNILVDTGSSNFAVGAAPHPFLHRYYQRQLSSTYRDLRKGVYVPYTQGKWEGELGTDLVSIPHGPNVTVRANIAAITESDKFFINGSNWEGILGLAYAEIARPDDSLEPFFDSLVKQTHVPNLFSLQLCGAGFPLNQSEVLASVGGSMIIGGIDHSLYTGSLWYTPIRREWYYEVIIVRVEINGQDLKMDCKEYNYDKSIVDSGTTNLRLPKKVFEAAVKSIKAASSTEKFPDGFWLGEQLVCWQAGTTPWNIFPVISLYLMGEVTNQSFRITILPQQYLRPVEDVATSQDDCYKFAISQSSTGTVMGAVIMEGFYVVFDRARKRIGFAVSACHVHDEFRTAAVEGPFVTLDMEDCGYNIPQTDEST
# Target: T1, memapsin 2 (Homo sapiens, UniProt P56817)
# T1 construct: pET-11 vector-derived residues 1-15 of promemapsin 2-T1 (N, cleaved yes); made in house; host or cells: E. coli
# Assay: Inhibition of memapsin 2 proteolytic activity, fluorogenic substrate FS-2
# Format: biochemical
# Protocol: Ki is the inhibition equilibrium constant which indicates the ability of compounds to inhibit the β-secretase activity of memapsin 2 and memapsin 1. […] The K1 value is independent of the substrate, and converted from Ki apparent.
# The Vi/Vo values depicted in Table 1 were determined at conditions under which the enzyme and inhibitor concentrations were equal (e.g., about 80 nM, 100 nM).
# The relationship of Ki (independent of substrate concentration) to Kiapp is a function of substrate concentration in the assay and the Km for cleavage of the substrate by either memapsin 1 or memapsin 2 by the relationship:
# The spontaneously activated memapsin 2 was employed in assays to assess the inhibition of memapsin 2 relative to memapsin 1 by compounds of the invention and in some crystallization studies.
# An aliquot of the inhibitor of known concentration in DMSO was diluted into 1.8 ml 0.1 M NaOAc, pH 4.0. DMSO and added to a final concentration of 10% (v/v), and memapsin 2 (final concentration of 80 nM), followed by a 20 minute equilibration at 37° C. Compounds were evaluated for the ability to inhibit memapsin 1 and memapsin 2 at concentrations between about 10 nM and about 10 μm of inhibitor.
compound,measurement,value
"CC(C)C[C@H](NC(=O)[C@@H](N)CCC(=O)O)C(=O)N[C@@H](CC(=O)O)C(=O)N[C@@H](CC(C)C)[C@@H](O)C[C@@H](C)C(=O)N[C@H](C(=O)N[C@@H](CCC(=O)O)C(=O)N[C@@H](Cc1ccccc1)C(=O)O)C(C)C [OM00-3, ELDL*AVEF]",Improvement of Ki relative to OM99-2,5.2 fold
